Apparent affinities of Ab-14 variants for a coronavirus HR2 peptide

Source: Li et al. 2023 (doi:10.1038/s41467-023-39022-2), MIT Lincoln Laboratory and A-Alpha Bio; data file from the FLAb repository.

Target peptide (SARS-CoV-2 spike, HR2 region): PDVDLGDISGINAS

Ab-14 is the parent antibody, in scFv form: VH, then the linker GGGGSGGGGSGGGGS, then VL. The heavy chain is unchanged in all variants.
VH: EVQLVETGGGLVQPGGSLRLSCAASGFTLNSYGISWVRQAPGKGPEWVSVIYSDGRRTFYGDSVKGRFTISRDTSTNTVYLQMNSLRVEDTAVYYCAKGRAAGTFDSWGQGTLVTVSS
VL: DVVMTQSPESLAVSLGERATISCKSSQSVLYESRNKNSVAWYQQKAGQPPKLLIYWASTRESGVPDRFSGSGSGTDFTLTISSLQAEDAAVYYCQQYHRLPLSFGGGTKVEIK

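The parent was found by panning a naive human phage display library on the peptide. The variants were designed computationally from a first round of random CDR variants and then made and measured. Their group label is 14L_En_Gen (En: ensemble of fine-tuned language models; Gen: genetic algorithm). The assay is AlphaSeq: two haploid yeast populations carry antibody and antigen on their surface. Binding brings cells together so that they mate, and sequencing counts the barcode pairs among the diploids. Read counts were normalised to the haploid input and turned into Kd by a linear fit to BCL2-family pairs of known affinity, for each replicate. Each pool was mated in six replicate cultures.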

Each variant is given by its three light chain CDRs, as the data file delimits them; those of the parent are KSSQSVLYESRNKNSVA, WASTRES, QQYHRLPLS.
Numbers give log10(Kd / nM), so 0 is 1 nM and 3 is 1 µM. Smaller is tighter.
An entry "ND" has no value in the source: the pair was not observed among the diploids in that replicate. This suggests poor binding but is not conclusive.
Values of this round are not directly comparable with the first-round values of the same sequences.
As a blank, each scFv also met three strains without target: over all light chain designs, 4% of these pairings were detected, typically at 2.64 and seldom below 1.59. The control count says in how many pairings with the empty strains this scFv gave a signal.
The authors' rule: three or more of the six replicates give a measured affinity, fewer mean a poor binder.

RLSALSGIQEVERNSVA, QNSTREQ, QQYDRLPLS: ND, ND, ND, ND, ND, ND (controls 1 of 18).
IVSQLMLWGTHVKNSIA, EAETRLN, QQYERLPLF: 2.33, 0.95, 2.24, 2.96, 1.02, 1.81 (controls 1 of 18).
TISGMTSLFSQSINNVA, EVSTREP, QQYDRLPLV: 0.46, 1.05, 0.15, 0.64, 0.84, 1.01 (controls 0 of 18).
KLSGLMASSKFAKNNVA, ENNTRED, QQYDRLPLS: ND, 2.29, 2.15, 1.80, ND, 2.19 (controls 2 of 18).
KLTMITGTEKVRGNNVA, EMETRER, QQYNRLPLA: 0.67, 0.14, 0.17, 0.48, 0.32, 0.47 (controls 0 of 18).
IIDQLMYWGNKHVNSIA, QASQRLN, QQYHHLPLI: ND, ND, ND, ND, ND, ND (controls 0 of 18).
KIGMTLNQLQEKKNNVA, DLVYREN, QQYHRLPLS: 1.29, 1.72, 1.89, ND, 1.37, 1.89 (controls 0 of 18).
TIMQMTSSFSQNINNVA, EVSTREK, QQYDRLPLA: 0.58, 0.64, 0.11, 0.00, 0.97, 0.14 (controls 0 of 18).
KISQMTRVGSTHGNSIA, EETTRAK, QQYHRLPLF: 2.50, 2.05, ND, 2.25, 1.90, 2.03 (controls 0 of 18).
MVSMNIYGEYRLRDNVA, HASMRED, QCYDRLPLS: ND, ND, ND, ND, ND, ND (controls 0 of 18).
IVSQLMMWGMHAKNSIA, EAVTRLN, QQYDRLPLF: ND, ND, 1.75, ND, ND, ND (controls 0 of 18).
MISQLYNMGQFAINSVA, QASERNA, QQYDRLPLF: ND, 1.83, 0.95, ND, 2.63, ND (controls 0 of 18).
KISQMVRVGSTVSNSIA, EEVTRAK, QQYHRLPLA: 1.55, 0.95, 1.78, 1.28, 1.15, 1.47 (controls 1 of 18).
KVSEFMKGLMGRKDSIA, DNTTRNS, QQYDRLPLS: ND, ND, 2.20, 2.24, 2.27, 1.88 (controls 3 of 18).
TIYGTLSYGMRNRSNVA, EVSERLN, QQYDRLPLI: 2.04, 2.88, 1.59, 1.77, 1.74, 3.34 (controls 1 of 18).
KISGMSNHQSSVSNNVA, ENVTRVN, QQYFRLPLA: 1.45, 1.01, 1.45, 2.01, 1.15, 1.17 (controls 2 of 18).
KLASVTGTEKVHGNNVA, EMEMREN, QQYNRLPLS: 0.57, 0.25, 0.52, 0.21, 0.17, 0.24 (controls 0 of 18).
KIGTTLNQLLHQKNNVA, DLVMREN, QQYHRLPLS: ND, 0.73, 0.11, 0.27, 0.42, 0.59 (controls 0 of 18).
IVSQLMMWGMHAKNSIA, EAVTRLN, QQYDRLPLI: ND, ND, ND, 2.04, ND, 2.43 (controls 0 of 18).
IVSQLMMWGMHAKNSIA, EAVTRLN, QQYERLPLF: 0.49, ND, ND, ND, ND, ND (controls 1 of 18).
HMSMLTLGGMRTRNSVA, QMTTREN, QQYDRLPLA: 1.58, 0.95, 0.79, 0.82, 0.58, 0.40 (controls 1 of 18).
MISQLGNMGQFAINSVA, QASLRND, QQYDRLPLA: 0.25, 0.27, 0.18, 0.55, 0.24, 0.31 (controls 0 of 18).
HMSMLTLSGMYHRNSVA, QMTTREN, QQYDRLPLS: 1.14, 0.76, 0.99, 0.64, 2.02, 2.09 (controls 0 of 18).
KVSSFMRGLMMRTDSIA, DNETRNS, QQYDRLPLS: ND, ND, ND, ND, ND, 1.72 (controls 0 of 18).
KIGATLNMMEHKKNNVA, DLVTREN, QQYHRLPLS: 0.47, 0.33, 0.23, -0.02, 1.65, 0.32 (controls 0 of 18).
IVSQLMLWGWHAKNSIA, EAEMRLN, QQYHRLPLF: ND, ND, ND, ND, ND, ND (controls 0 of 18).
TLGATVGGESRNRNSVA, HNSMREN, QQYDRLPLS: 0.67, 0.75, 0.85, 0.89, 1.13, 0.89 (controls 1 of 18).
TISQVMNTLTRHGNNVA, DLQERES, QQYFRLPLS: 0.73, 0.93, 0.51, 0.31, 0.73, 0.83 (controls 0 of 18).
SIGGFMKSLSAHINSVA, DMTNRED, QQYDRLPLM: 0.54, 0.16, 0.44, 0.18, -0.06, 0.24 (controls 0 of 18).
KLSMITGHMQTEKNNVA, EMVTREN, QQYNRLPLS: 0.56, 0.33, 0.41, 0.07, -0.05, 0.55 (controls 3 of 18).

Excerpt, the final 5 entries:

For IVSQLMLWGWHAKNSIA, EAEMRLN, QQYHRLPLF, the assay gave ND, ND, ND, ND, ND, ND (controls 0 of 18).
For TLGATVGGESRNRNSVA, HNSMREN, QQYDRLPLS, the assay gave 0.67, 0.75, 0.85, 0.89, 1.13, 0.89 (controls 1 of 18).
For TISQVMNTLTRHGNNVA, DLQERES, QQYFRLPLS, the assay gave 0.73, 0.93, 0.51, 0.31, 0.73, 0.83 (controls 0 of 18).
For SIGGFMKSLSAHINSVA, DMTNRED, QQYDRLPLM, the assay gave 0.54, 0.16, 0.44, 0.18, -0.06, 0.24 (controls 0 of 18).
For KLSMITGHMQTEKNNVA, EMVTREN, QQYNRLPLS, the assay gave 0.56, 0.33, 0.41, 0.07, -0.05, 0.55 (controls 3 of 18).